Chains of the proteins cited; added tags and fusions are not shown.
UniProt O43613, whole entry: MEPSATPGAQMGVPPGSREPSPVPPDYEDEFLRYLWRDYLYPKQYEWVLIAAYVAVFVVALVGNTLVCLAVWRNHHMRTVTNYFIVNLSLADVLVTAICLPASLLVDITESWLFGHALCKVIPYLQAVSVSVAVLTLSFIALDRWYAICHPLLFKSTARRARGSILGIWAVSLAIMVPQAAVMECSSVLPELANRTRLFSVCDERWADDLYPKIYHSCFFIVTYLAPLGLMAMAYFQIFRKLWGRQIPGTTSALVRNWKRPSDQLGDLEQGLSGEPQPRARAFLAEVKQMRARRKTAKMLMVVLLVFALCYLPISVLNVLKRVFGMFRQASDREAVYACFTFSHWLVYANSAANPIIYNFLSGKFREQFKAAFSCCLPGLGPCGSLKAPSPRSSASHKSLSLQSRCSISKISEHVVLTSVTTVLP
UniProt O43614, whole entry: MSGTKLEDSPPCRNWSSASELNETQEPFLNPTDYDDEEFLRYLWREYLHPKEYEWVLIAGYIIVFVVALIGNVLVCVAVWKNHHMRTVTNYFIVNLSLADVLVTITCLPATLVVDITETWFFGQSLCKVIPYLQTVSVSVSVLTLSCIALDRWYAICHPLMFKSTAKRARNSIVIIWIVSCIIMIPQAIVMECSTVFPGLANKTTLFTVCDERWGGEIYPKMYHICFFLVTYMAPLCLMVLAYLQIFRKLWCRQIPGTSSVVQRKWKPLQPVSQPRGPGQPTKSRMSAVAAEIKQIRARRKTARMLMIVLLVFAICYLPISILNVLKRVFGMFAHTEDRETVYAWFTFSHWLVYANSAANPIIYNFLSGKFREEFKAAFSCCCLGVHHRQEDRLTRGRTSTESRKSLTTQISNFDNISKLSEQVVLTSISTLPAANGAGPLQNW

According to patent US9611262B2, “Substituted 2-azabicycles and their use as orexin receptor modulators” (JANSSEN PHARMACEUTICA NV, priority 2014, dated 2017):

Legend:
[1] = molecular target: rat orexin 1 receptor (Rattus norvegicus, UniProt P56718); assay: Rat orexin 1 receptor radioligand binding (competitive); conditions: HEK293 cells stably expressing rat orexin 1 receptor; 4 nM radioligand; averages of 2-20 runs; read-out: rOX1 Ki
Experimental: (§1) The in vitro affinity of the compounds of the invention for the rat/human orexin 1 and human orexin 2 receptors was determined by competitive radioligand binding using [^3H](1-(5-(2-fluoro-phenyl)-2-methyl-thiazol-4-yl)-1-((S)-2-(5-phenyl-(1,3,4)oxadiazol-2-ylmethyl)-pyrrolidin-1-yl)-methanone) (Langmead et al., 2004) and [^3H]EMPA (n-ethyl-2[96-methoxy-pyridin-3-yl)-(toluene-2-sulfonyl)-amino]-N-pyridin-3-ylmethyl acetamide), respectively (Langmead et al., 2004, British Journal of Pharmacology 141:340-346; Malherbe et al., 2004, British Journal of Pharmacology 156:1326-41).
(§2) Data are analyzed using pc-Sandy macro and graphed on Graphpad Prism 5. For analysis, each concentration point is averaged from triplicate values and the averaged values are plotted on Graphpad Prism. The IC50 was determined by applying the following equation (GraphPad Prism 5.0, San Diego) for one site competition where X=log (concentration) and Y=specific binding. […] Graphpad Prism calculates Ki value from IC50 and the pre-determined Kd values for [^3H]— (1-(5-(2-fluoro-phenyl)-2-methyl-thiazol-4-yl)-1-((S)-2-(5-phenyl-(1,3,4)oxadiazol-2-ylmethyl)-pyrrolidin-1-yl)-methanone) and [^3H]-EMPA. […]

[2] = molecular target: human orexin 1 receptor (Homo sapiens (Human), UniProt O43613); assay: Human orexin 1 receptor radioligand binding (competitive); conditions: CHO cells stably expressing human orexin 1 receptor; 4 nM radioligand; averages of 2-20 runs; read-out: hOX1 Ki
Experimental: as §1, §2

[3] = molecular target: human orexin 2 receptor (Homo sapiens (Human), UniProt O43614); assay: Human orexin 2 receptor radioligand binding ([3H]-EMPA competition); conditions: HEK293 stably expressing human orexin 2 receptor; 2 nM [3H]-EMPA; averages of 2-20 runs; read-out: hOX2 Ki
Experimental: as §1
Data are analyzed using pc-Sandy macro and graphed on Graphpad Prism 5. For analysis, each concentration point is averaged from triplicate values and the averaged values are plotted on Graphpad Prism. The IC50 was determined by applying the following equation (GraphPad Prism 5.0, San Diego) for one site competition where X=log (concentration) and Y=specific binding. Top denotes the total [^3H]— (1-(5-(2-fluoro-phenyl)-2-methyl-thiazol-4-yl)-1-((S)-2-(5-phenyl-(1,3,4)oxadiazol-2-ylmethyl)-pyrrolidin-1-yl)-methanone) binding, bottom denotes the nonspecific [^3H]— (1-(5-(2-fluoro-phenyl)-2-methyl-thiazol-4-yl)-1-((S)-2-(5-phenyl-(1,3,4)oxadiazol-2-ylmethyl)-pyrrolidin-1-yl)-methanone) binding. Graphpad Prism calculates Ki value from IC50 and the pre-determined Kd values for [^3H]— (1-(5-(2-fluoro-phenyl)-2-methyl-thiazol-4-yl)-1-((S)-2-(5-phenyl-(1,3,4)oxadiazol-2-ylmethyl)-pyrrolidin-1-yl)-methanone) and [^3H]-EMPA. The Ki for each compound is then uploaded into 3DX. Each run comprises individual compounds in triplicate. The data in Table 1 and Table 2 represent averages from between 2-20 runs
Human Orexin 2 Receptor Radioligand Binding Studies
HEK293 stably expressing human orexin 2 receptor (Genebank accession number NM_001526) were grown to confluency in DMEM (Hyclone, cat # SH30022), 10% FBS, 1× Pen/Strep, 1× NaPyruvate, 10 mM HEPES, 600 μg/ml G418 media on 150 cm^2 tissue culture plates, washed with 5 mM EDTA in PBS (HyClone Dulbecco's Phosphate Buffered Saline 1× with Calcium and Magnesium, Cat # SH30264.01, hereafter referred to simply as PBS) and scraped into 50 ml tubes. After centrifugation (2K×G, 5 min at 4° C.), the supernatant was aspirated and the pellets frozen and stored at −80° C. Cells were resuspended in PBS in the presence of 1 tablet of protease inhibitor cocktail (Roche, Cat. #11836145001) per 50 mL. […] Compounds were solubilized in 100% DMSO (Acros Organics, Cat. #61042-1000) and tested over a range of 7 concentration (from 0.1 nM to 10 μM). The final concentration of DMSO in the reactions is equal to or less than 0.1%. Total and nonspecific binding was determined in the absence and presence of 10 μM almorexant. The total volume of each reaction is 200 μL (20 μL of diluted compounds, 80 μL of [^3H]-EMPA diluted in PBS and 100 μL of the cell suspension). Reactions were run for 60 min at room temperature and terminated by filtration through GF/C filter plates (PerkinElmer, Cat. #6005174) presoaked in 0.3% polyethylenimine using the cell harvester (PerkinElmer Filtermate). The plates were washed 3 times by aspirating 30 ml PBS through the plates. Plates were dried in 55° C. oven for 60 min, scintillation fluid was added, and the radioactivity was counted on a Topcount (Packard).

Ki [1] [nM]	Ki [2] [nM]	Ki [3] [nM]	Compound
2	–	–	[2H]C([2H])([2H])[C@]1([2H])[C@H]2C[C@@H](Oc3ccc(C(F)(F)F)cn3)[C@H](C2)N1C(=O)c1ccccc1-n1nccn1 [Example 163, [(1R,2R,4S,5R)-2-deuterio-2-(trideuteriomethyl)-5-[[5-(trifluoromethyl)-2-pyridyl]oxy]-3-azabicyclo[2.2.1]heptan-3-yl]-[2-(triazol-2-yl)phenyl]methanone]
3	3	452	Cc1ccc(-n2nccn2)c(C(=O)N2[C@H](C)[C@H]3C[C@@H](Oc4ccc(Cl)cn4)[C@@H]2C3)n1 [Example 122, [(1R,2R,4S,5R)-5-[(5-chloro-2-pyridyl)oxy]-2-methyl-3-azabicyclo[2.2.1]heptan-3-yl]-[6-methyl-3-(triazol-2-yl)-2-pyridyl]methanone]
